Results from patent US11173137B2, “Compositions and methods to modulate chloride ion channel activity” (The Board of Trustees of the Leland Stanford Junior …, priority 2018, dated 2021).

The chains behind the UniProt entries cited, without tags or fusion partners. Where a name states a change or a piece, a line headed by the entry shows the natural chain unless it says otherwise.
UniProt P51788: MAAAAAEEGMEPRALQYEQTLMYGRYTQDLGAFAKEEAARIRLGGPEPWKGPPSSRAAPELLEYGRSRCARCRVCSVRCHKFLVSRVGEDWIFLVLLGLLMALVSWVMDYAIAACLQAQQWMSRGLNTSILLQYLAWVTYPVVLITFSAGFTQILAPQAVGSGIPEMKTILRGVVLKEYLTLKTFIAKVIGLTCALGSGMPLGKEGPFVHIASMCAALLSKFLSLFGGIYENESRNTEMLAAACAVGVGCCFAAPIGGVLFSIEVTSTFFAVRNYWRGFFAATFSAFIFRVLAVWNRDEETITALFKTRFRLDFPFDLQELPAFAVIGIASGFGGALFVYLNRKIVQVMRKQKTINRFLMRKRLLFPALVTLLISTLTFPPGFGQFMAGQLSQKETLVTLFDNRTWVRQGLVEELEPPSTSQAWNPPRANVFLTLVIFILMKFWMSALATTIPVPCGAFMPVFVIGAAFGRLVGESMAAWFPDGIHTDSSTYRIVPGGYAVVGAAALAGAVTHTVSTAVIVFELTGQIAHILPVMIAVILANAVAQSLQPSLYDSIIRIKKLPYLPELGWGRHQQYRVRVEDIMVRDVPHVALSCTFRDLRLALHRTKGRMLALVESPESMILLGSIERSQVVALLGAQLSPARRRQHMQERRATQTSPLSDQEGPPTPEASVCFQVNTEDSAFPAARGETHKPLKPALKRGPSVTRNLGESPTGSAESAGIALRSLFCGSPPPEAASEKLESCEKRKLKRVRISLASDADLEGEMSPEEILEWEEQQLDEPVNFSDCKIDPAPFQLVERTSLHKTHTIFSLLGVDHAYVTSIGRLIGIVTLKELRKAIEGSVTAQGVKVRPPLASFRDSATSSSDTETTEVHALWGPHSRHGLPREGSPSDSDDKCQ

Target: CLC-2 (Homo sapiens (Human), UniProt P51788)
Assay: IonWorks Barracuda automated patch-clamp electrophysiology, human CLC-2 cell line
Assay type: cell-based
Settings: n = 4 cells, four concentrations of each compound, read-out: IC50 (μM) against CLC-2
Text: FIG. 8, panels A and B depict graphically the Selectivity between CLC-1 and CLC-2. […]

IC50: > 363 µM
SMILES: O=C(O)Cc1ccccc1Nc1c(Cl)cccc1Cl [Diclofenac, reference compound]
